# Source: PubChem BioAssay (National Center for Advancing Translational Sciences (NCATS))
# Sampled rows, rich in hits. Any-hit rate of the full collection: about 1.3%.
# miR-21 reporter: raises the signal of a miR-21 reporter; 340,000 tested, under 10 active; HeLa miR-21 FLuc reporter, luciferase, 48 h; Potency, µM (series often up to 38.3 µM), for inactives: at the highest dose reporter change, positive = more light; active = well fitted rising curve with a large enough effect; inconclusive = small, poorly fitted or top-dose-only effect; inactive = no such curve, though single readings can be large or run the other way;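 further: % of control where 0% means no effect; miR-21 action dims this reporter so a rising signal means less miR-21 action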
#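 Compounds were titrated across several concentrations (up to approximately 40 uM) and incubated 48 hours with HeLa miR-21-FLuc reporter cells (miR-21 target sequence downstream of FLuc, endogenous miR-21). Readout was firefly luciferase luminescence after lytic detection reagent.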
# PTHR1 agonist: activates the human parathyroid hormone receptor PTHR1; HEK293 GP2 PTHR1 cells, GloSensor cAMP luminescence, 1 h; Potency, µM (top dose mostly 115 µM), without a hit: at the top dose activation, usual class: activators; 410,000 compounds, 0.075% hits; note: potency is the fitted concentration of half-maximal effect; nearly all actives have a fitted effect of over 55% in size
#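 HEK-293-derived GP2 cells expressing PTHR1 and a GloSensor cAMP reporter, 3,000/well, plated overnight, given luciferin plus IBMX (each 0.5 mM as added) for 1 h at 37 °C, then compound for 1 h at 37 °C. Luminescence was read after 15 min at room temperature.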
# 12-LOX inh: blocks human arachidonate 12S-lipoxygenase. AID 1671190. Potency, µM (doses to about 108 µM), for the others: at the highest dose activity change, negative = inhibition, usual class: inhibitors. 580,000 compounds, 1.1% hits. purified 12hLO, xylenol orange hydroperoxide absorbance. P18054; note: potency is the fitted concentration of half-maximal effect; % is set by controls: 0 for no effect and ±100 for the full control effect
#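 Purified human 12hLO (150 nM final) in 25 mM Hepes, 0.01% Triton X-100, pH 7.0 was preincubated 15 min at room temperature with compound. Then 40 uM arachidonic acid was added, 30 min. Hydroperoxide was read by Fe-XO absorbance ratio 573/405 nm.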
# PINK1 modulator: PINK1 expression modulation; PINK1 immunofluorescence, high-content cytometry, 24 h; Potency, µM (highest dose often 76.6 µM), for the others: at the highest dose activation (PINK1 increase), hits mostly activators; 410,000 compounds, 0.2% hits; active = well fitted activation curve with a large enough effect; inconclusive = small, poorly fitted or top-dose-only effect; cell line not stated here; note: potency is the fitted concentration of half-maximal effect; % of control where 0% means no effect; nearly all actives have a fitted effect of over 65% in size
#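 Stable cell line, 250 cells/well, 12 h attachment; compounds pinned at 5 concentrations, 24 h; CCCP control. Fixed with nuclear dye, primary antibodies 12 h at 10 degrees C, secondary plus cell stain; laser-scanning cytometer read.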
# Giardia kill: Giardia lamblia killing | 340,000 compounds, 0.15% hits | activity change, % at 7.66 µM, hits read low | AID 540267 | Giardia lamblia trophozoite viability; in the data active = activity change below about -80%; inconclusive = between about -30% and that limit;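 note: parasites exposed to compound for two days anaerobically before the ATP read; % is set by controls: 0 for no effect and ±100 for the full control effect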
#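 Media and compound were dispensed first, then trophozoites at 100 cells/well; plates sat 48 hrs at 37 deg C without oxygen before ATP luminescence reagent was added and read after 15-30 min at room temperature.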
# ERG Ets-DNA blk: blocks human ERG Ets domain binding to DNA; P11308; fluorescence polarization, His-ERG Ets domain / labelled DNA; Potency, µM (titrated, usually from 76.9 µM), for the others: at the top dose FP activity, negative = inhibition, usual class: inhibitors; 370,000 compounds, 0.028% hits; active = well fitted inhibition curve with a large enough effect in the polarisation, with a control signal flat; inconclusive = small, poorly fitted or top-dose-only effect, or effect the other way, or a change in a side signal; inactive = no such curve, though single readings can be large or run the other way; the % refers to the polarisation;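 note: polarization taken with two DNA probes labelled with fluorescein and Texas red; potency is the fitted concentration of half-maximal effect; % of control where 0% means no effect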
#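 His-tagged ERG Ets domain (1 uM in the protein solution; 300mM KCl, 50mM Tris-HCl, 1mM EDTA, 1mM DTT, pH 7.5) received compound, then a probe mix of 5 nM fluorescein-DNA and 100nM Texas-615-DNA. Fluorescence polarization was read for both dyes.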
# An asterisk follows results filed as active; i = inactive; ? = inconclusive; nt = no result; [ ] = dose if it differs, or a comment. Unless noted, calls come from the whole dose curve; as a rule, active = well fitted curve in the direction sought with a large enough effect; inconclusive = small, poorly fitted or top-dose-only effect, or another doubt; inactive = no such curve, though single readings can be large; an effect the other way counts as inactive or inconclusive.
Compound | miR-21 reporter | PTHR1 agonist | 12-LOX inh | PINK1 modulator | Giardia kill | ERG Ets-DNA blk
COc1ccc2cc(-c3cc(C(=O)OCC(=O)NC4CCS(=O)(=O)C4)c4ccccc4n3)ccc2c1 (stereo not given) | 11% | -40% | -25% | 4% | -88* | -1%
COc1ccc2cc(-c3cc(C(=O)OCC(=O)Nc4c(C)n(C)n(-c5ccccc5)c4=O)c4ccccc4n3)ccc2c1 | -13% | -24% | ? | 3% | -94* | -2%
c1ccc(Cc2nn3c(Cn4nnc5ccccc54)nnc3s2)cc1 | -31% | i | 56µM* | -11%[38.3 µM] | 9 | 0%
O=C(NCc1cccc(Cl)c1)c1cc2c(s1)-c1ccccc1SC2 | 9% | -51% | -17% | 1% | nt | 11%
O=C(NCC1CCCO1)c1ccc2c(c1)C(=O)N(C1CCCCC1)C2=O (stereo not given) | -8% | i | 248% | 0% | -9 | -4%
Cc1ccccc1NC(=O)c1cnn2cccnc12 | nt | nt | 21% | nt | nt | nt
Cc1cccc(C(=O)Nc2sc3c(c2C(N)=O)CCCCC3)c1 | nt | nt | 10µM* | nt | nt | nt
COc1ccc(C(=O)Nc2sc3c(c2C(N)=O)CCCC3)cc1OC | nt | nt | 231% | nt | nt | nt
NC(=O)c1c(NC(=O)c2ccccc2Cl)sc2c1CCC2 | -38% | -24% | 28µM* | -1% | -29 | 1%
COc1ccc2nc(Nc3sc4c(c3C(N)=O)CCCC4)sc2c1 | -45% | i | 22µM* | 11% | 13 | -8%
NC(=O)c1c(NC(=O)c2ccccc2C(=O)O)sc2c1CCCC2 | 4% | -1% | -8% | 1% | -3 | 17%
O=C(O)CCCCCNS(=O)(=O)c1cccc2c1C(=O)c1ccccc1C2=O | 2% | -40% | ? | -3% | ? | nt
O=C(CCCCCCCC(=O)NNC(=O)Nc1ccccc1)NNC(=O)Nc1ccccc1 | -33% | -10% | -3% | ? | 13 | 4%
Cn1cc(CNCC2(COc3ccc(C(F)(F)F)cn3)C[C@@H](O)[C@@H](O)C2)cn1 (stereo not given in full) | nt | nt | 18µM* | nt | nt | nt
CCCCN(CCCC)c1nc2ccccc2nc1NS(=O)(=O)c1ccc(NC(C)=O)cc1 | -2% | i | -1% | 2% | 2 | 13%
CCCCN(Cc1ccccc1)c1ccc(C(=O)O)cc1NS(=O)(=O)c1ccc(C)c(C)c1 | nt | nt | 8.9µM* | nt | nt | nt
Cc1ccc(C(=O)O)cc1NS(=O)(=O)c1ccc2ccccc2c1 | 2% | i | -13% | 0% | -5 | -13%
CCCCN(Cc1ccccc1)c1ccc(C(=O)O)cc1NS(=O)(=O)c1ccc(C(C)=O)cc1 | nt | nt | 5.6µM* | nt | nt | nt
COc1ccc(C(=O)N2CCC[C@H]2c2nc(-c3ccccc3Cl)no2)cc1F | nt | nt | 32% | nt | nt | nt
O=C(CSc1nc2nc[nH]c2c(=O)[nH]1)NCc1ccc(F)cc1 | nt | nt | 7% | nt | nt | nt
O=C(CSc1nc2nc[nH]c2c(=O)[nH]1)NCc1ccccc1 | nt | nt | 0.56µM* | nt | nt | nt
CC(=O)Nc1c(C(=O)N2CCOCC2)cnn1-c1ccc(C)c(C)c1 | -3% | -14%[57.5 µM] | -8% | -1% | 4 | 2%
O=c1cc(CSc2nnnn2-c2ccccc2)[nH]n1-c1ccccc1 | nt | nt | -76% | nt | nt | nt
O=c1cc(CSc2nnnn2-c2ccccc2)[nH]n1-c1ccc(F)cc1 | nt | nt | 18µM* | nt | nt | nt
CCOC(=O)Cc1csc(NC(=O)NC2(C(F)(F)F)Oc3ccc(Cl)cc3O2)n1 (stereo not given) | -17% | -8% | ? | 3% | -1 | 0%
CCOC(=O)Cc1csc(NC(=O)NC2(C(F)(F)F)Oc3cc(Cl)c(Cl)cc3O2)n1 | -12% | -14% | 0.63µM* | 17% | 12 | 11%
CCN1CCN(S(=O)(=O)c2ccc(Cl)c(C(=O)N(CC)Cc3ccccc3)c2)CC1 | nt | -4% | ? | 1% | 10 | -3%
CCN1CCN(S(=O)(=O)c2ccc(S(=O)(=O)N(CC)Cc3ccccc3)cc2)CC1 | -3% | -8% | 1.4µM* | 1%[38.3 µM] | 7 | nt
Cc1ccccc1OCc1nc2c3c(ncn2n1)Oc1cc(O)ccc1C3c1ccccc1 (stereo not given) | nt | nt | 9% | nt | nt | nt
O=C(CCCCCCCC(=O)Nc1ccc(C(=O)c2ccccc2)cc1)Nc1ccc(C(=O)c2ccccc2)cc1 | nt | nt | 40µM* | nt | nt | nt
Cc1ccc(C(=O)N[C@H]2CO[C@H]3[C@@H]2OC[C@@H]3Nc2nccc(C(C)(C)C)n2)cc1 | nt | nt | 7%[176 µM] | nt | nt | nt
Cc1c(C(O)CN2CCN(Cc3ccc4c(c3)OCO4)CC2)c2ccccc2n1C (stereo not given) | -1% | i | 45µM* | -6%[38.3 µM] | -1 | 0%
C[C@@H]1CN([C@@H](C)CO)C(=O)CCCn2nncc2CO[C@H]1CN(C)S(=O)(=O)c1ccccc1 | nt | -17% | -2% | -1% | nt | nt
NC(c1ccccc1)c1csc(Nc2cc(Oc3ccccc3)ncn2)n1 (stereo not given) | nt | -7% | 35µM* | ? | nt | nt
CC(C)C(N)c1csc(Nc2cc(Oc3ccccc3)ncn2)n1 (stereo not given) | nt | i | 34% | 13% | nt | nt
CCOC(=O)C1CCCN(Cc2ccccc2F)C1 (stereo not given) | -4% | i | ? | 0%[38.3 µM] | -1 | -2%
CC(=O)N1CCC(Oc2ccccc2)C1 (stereo not given) | nt | nt | -5% | nt | nt | nt
O=C(Cc1cccs1)N1CCC(Oc2ccccc2)C1 (stereo not given) | nt | nt | 50µM* | nt | nt | nt
O=C(Nc1nn[nH]n1)c1cccc(S(=O)(=O)N2CCCCCC2)c1 | nt | nt | 10µM* | nt | nt | nt
COc1cc(/C=N/Nc2cccc(C)c2)cc(Br)c1O | -18% | -5% | 2.8µM* | 2% | -3 | -13%
O=C(C1CCCN(Cc2ccccc2[N+](=O)[O-])C1)N1CCCCC1 (stereo not given) | -1% | -15% | 2µM* | -1% | -5 | 11%
O=C(C1CCCN(Cc2ccccc2Cl)C1)N1CCCCC1 (stereo not given) | ? | i | ? | 2% | -22 | 4%
O=C(C1CCCN(Cc2cccc3ccccc23)C1)N1CCCCC1 (stereo not given) | nt | nt | 0.45µM* | nt | nt | nt
Cc1ccccc1CN1CCCC(C(=O)N2CCCCC2)C1 (stereo not given) | 1% | -15% | ? | 1% | -1 | -11%
CCn1c(C)c2c([n+]1CC)CC(C)(C)CC2=O | 4% | -3%[57.5 µM] | 13µM* | nt | -3 | nt
CC[C@H]1OC(=O)[C@H](C)[C@@H](O[C@H]2C[C@@](C)(OC)[C@@H](O)[C@H](C)O2)[C@H](C)[C@@H](O[C@@H]2O[C@H](C)C[C@H](N(C)C)[C@@H]2O)[C@](C)(OC)C[C@@H](C)C(=O)[C@H](C)[C@@H](O)[C@]1(C)O | nt | nt | -9%[57.4 µM] | nt | nt | nt

# Already shown: entries from further up.
Compound | miR-21 reporter | PTHR1 agonist | 12-LOX inh | PINK1 modulator | Giardia kill | ERG Ets-DNA blk
CCn1c(C)c2c([n+]1CC)CC(C)(C)CC2=O | 4% | -3%[57.5 µM] | 13µM* | nt | -3 | nt
CC[C@H]1OC(=O)[C@H](C)[C@@H](O[C@H]2C[C@@](C)(OC)[C@@H](O)[C@H](C)O2)[C@H](C)[C@@H](O[C@@H]2O[C@H](C)C[C@H](N(C)C)[C@@H]2O)[C@](C)(OC)C[C@@H](C)C(=O)[C@H](C)[C@@H](O)[C@]1(C)O | nt | nt | -9%[57.4 µM] | nt | nt | nt

# Looked up above.
# Cc1c(C(O)CN2CCN(Cc3ccc4c(c3)OCO4)CC2)c2ccccc2n1C (stereo not given) in PINK1 modulator has -6%[38.3 µM]
# O=C(C1CCCN(Cc2ccccc2Cl)C1)N1CCCCC1 (stereo not given) in PINK1 modulator has 2%
# NC(c1ccccc1)c1csc(Nc2cc(Oc3ccccc3)ncn2)n1 (stereo not given) in PTHR1 agonist has -7%
# Cc1ccc(C(=O)O)cc1NS(=O)(=O)c1ccc2ccccc2c1 in ERG Ets-DNA blk has -13%
# O=C(CSc1nc2nc[nH]c2c(=O)[nH]1)NCc1ccccc1 in 12-LOX inh has 0.56µM*
